Target: RSK2 (Homo sapiens, UniProt P51812)
Assay: FRET kinase binding assay (LanthaScreen Eu Kinase Binding Assay), full-length RSK2
Settings: for % Uninhibited kinase at 30 μM: 30 μM inhibitor
Description: Normalised EMR was calculated in MATLAB (Mathworks).
Hill slope and IC50 were unconstrained. […] Statistical significance is considered using α = 0.01.

The chains behind the UniProt entries cited, without tags or fusion partners.
UniProt P51812, whole entry: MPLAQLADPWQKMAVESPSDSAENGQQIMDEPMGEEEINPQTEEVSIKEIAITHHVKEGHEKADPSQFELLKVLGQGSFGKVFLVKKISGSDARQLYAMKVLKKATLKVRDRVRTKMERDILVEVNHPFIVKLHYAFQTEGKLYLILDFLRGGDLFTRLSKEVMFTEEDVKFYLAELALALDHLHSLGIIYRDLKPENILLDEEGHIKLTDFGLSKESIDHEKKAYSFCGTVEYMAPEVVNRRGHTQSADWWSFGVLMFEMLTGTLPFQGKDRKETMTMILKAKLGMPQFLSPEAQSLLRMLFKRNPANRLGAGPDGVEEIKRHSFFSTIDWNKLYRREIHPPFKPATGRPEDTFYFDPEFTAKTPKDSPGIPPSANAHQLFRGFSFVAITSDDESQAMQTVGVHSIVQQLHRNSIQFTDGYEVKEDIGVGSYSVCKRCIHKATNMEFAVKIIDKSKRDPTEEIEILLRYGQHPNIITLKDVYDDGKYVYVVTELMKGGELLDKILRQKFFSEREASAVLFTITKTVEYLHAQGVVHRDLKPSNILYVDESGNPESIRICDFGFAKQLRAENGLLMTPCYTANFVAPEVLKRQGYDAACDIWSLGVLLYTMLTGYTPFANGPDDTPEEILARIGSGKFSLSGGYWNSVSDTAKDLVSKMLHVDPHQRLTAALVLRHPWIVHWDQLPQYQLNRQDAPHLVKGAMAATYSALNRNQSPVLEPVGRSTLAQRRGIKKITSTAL

Structure (SMILES): CC(C)CCN1c2nc(Nc3cc(F)c(O)c(F)c3)ncc2N(C)C(=O)C1C (stereo not drawn) [BI-D1870, reference compound]
- Time dependence of efficacy to inhibit RSK2 (2 h vs 5 min incubation): no time dependence
- % Uninhibited kinase at 30 μM (RSK2, 5 min incubation): 1.1%
- % Uninhibited kinase at 30 μM (RSK2, 2 h incubation): 1.2%

— PMC8344253, “Identifying requirements for RSK2 specific inhibitors” (Journal of Enzyme Inhibition and Medicinal Chemistry, 2021)
